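48-hour exposure; five concentrations; linearly interpolated endpoints. Abbreviation: GI50, concentration required for 50% inhibition of growth. TGI is the concentration that stops growth completely.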
Experiments:
Experiment in all cases: growth of human tumour cells (NCI), 48 h
[1] = system: 786-0 renal
[2] = system: A498 renal
[3] = system: A549 NSCLC
[4] = system: ACHN renal
[5] = system: BT-549 breast
[6] = system: CAKI-1 renal
[7] = system: COLO 205 colon
[8] = system: DU-145 prostate
[9] = system: EKVX NSCLC
[10] = system: HCT-116 colon
[11] = system: HCT-15 colon
[12] = system: HOP-62 NSCLC
[13] = system: HOP-92 NSCLC
[14] = system: HS 578T breast
[15] = system: HT29 colon
[16] = system: IGROV1 ovarian
[17] = system: K-562 leukemia
[18] = system: KM12 colon
[19] = system: LOX IMVI melanoma
[20] = system: M14 melanoma
[21] = system: MALME-3M melanoma
[22] = system: MCF7 breast
[23] = system: MDA-MB-231 breast
[24] = system: MDA-MB-435
[25] = system: MDA-N
[26] = system: NCI-H226 lung
[27] = system: NCI-H23 lung
[28] = system: NCI-H322M lung
[29] = system: NCI-H460 lung
[30] = system: NCI-H522 lung
[31] = system: NCI/ADR-RES ovarian
[32] = system: OVCAR-3 ovarian
[33] = system: OVCAR-4 ovarian
[34] = system: OVCAR-5 ovarian
[35] = system: OVCAR-8 ovarian
[36] = system: PC-3 prostate
[37] = system: RPMI-8226 leukemia
[38] = system: RXF 393 renal
[39] = system: SF-268 CNS
[40] = system: SF-295 CNS
[41] = system: SF-539 CNS
[42] = system: SK-MEL-2 melanoma
[43] = system: SK-MEL-28 melanoma
[44] = system: SK-MEL-5 melanoma
[45] = system: SK-OV-3 ovarian
[46] = system: SN12C renal
[47] = system: SNB-19 CNS
[48] = system: SNB-75 CNS
[49] = system: SW-620 colon
[50] = system: T-47D breast
[51] = system: TK-10 renal
[52] = system: U251 CNS
[53] = system: UACC-257 melanoma
[54] = system: UACC-62 melanoma
[55] = system: UO-31 renal

C(Cc1nn[nH]n1)c1nn[nH]n1
GI50 [1]: > 100 µM | TGI [1]: > 100 µM | GI50 [2]: > 100 µM | TGI [2]: > 100 µM | GI50 [3]: > 100 µM | TGI [3]: > 100 µM | GI50 [4]: > 100 µM | TGI [4]: > 100 µM | GI50 [5]: > 100 µM | TGI [5]: > 100 µM | GI50 [6]: > 100 µM | TGI [6]: > 100 µM | GI50 [7]: > 100 µM | TGI [7]: > 100 µM | GI50 [8]: > 100 µM | TGI [8]: > 100 µM | GI50 [9]: > 100 µM | TGI [9]: > 100 µM | GI50 [10]: > 100 µM | TGI [10]: > 100 µM | GI50 [11]: > 100 µM | TGI [11]: > 100 µM | GI50 [12]: > 100 µM | TGI [12]: > 100 µM | GI50 [13]: > 100 µM | TGI [13]: > 100 µM | GI50 [14]: > 100 µM | TGI [14]: > 100 µM | GI50 [15]: > 100 µM | TGI [15]: > 100 µM | GI50 [16]: > 100 µM | TGI [16]: > 100 µM | GI50 [17]: > 100 µM | TGI [17]: > 100 µM | GI50 [18]: > 100 µM | TGI [18]: > 100 µM | GI50 [19]: > 100 µM | TGI [19]: > 100 µM | GI50 [20]: > 100 µM | TGI [20]: > 100 µM | GI50 [21]: > 100 µM | TGI [21]: > 100 µM | GI50 [22]: > 100 µM | TGI [22]: > 100 µM | GI50 [23]: > 100 µM | TGI [23]: > 100 µM | GI50 [24]: > 100 µM | TGI [24]: > 100 µM | GI50 [25]: > 100 µM | TGI [25]: > 100 µM | GI50 [26]: > 100 µM | TGI [26]: > 100 µM | GI50 [27]: > 100 µM | TGI [27]: > 100 µM | GI50 [28]: > 100 µM | TGI [28]: > 100 µM | GI50 [29]: > 100 µM | TGI [29]: > 100 µM | GI50 [30]: > 100 µM | TGI [30]: > 100 µM | GI50 [31]: > 100 µM | TGI [31]: > 100 µM | GI50 [32]: > 100 µM | TGI [32]: > 100 µM | GI50 [33]: > 100 µM | TGI [33]: > 100 µM | GI50 [34]: > 100 µM | TGI [34]: > 100 µM | GI50 [35]: > 100 µM | TGI [35]: > 100 µM | GI50 [36]: > 100 µM | TGI [36]: > 100 µM | GI50 [37]: > 100 µM | TGI [37]: > 100 µM | GI50 [38]: > 100 µM | TGI [38]: > 100 µM | GI50 [39]: > 100 µM | TGI [39]: > 100 µM | GI50 [40]: > 100 µM | TGI [40]: > 100 µM | GI50 [41]: > 100 µM | TGI [41]: > 100 µM | GI50 [42]: > 100 µM | TGI [42]: > 100 µM | GI50 [43]: > 100 µM | TGI [43]: > 100 µM | GI50 [44]: > 100 µM | TGI [44]: > 100 µM | GI50 [45]: > 100 µM | TGI [45]: > 100 µM | GI50 [46]: > 100 µM | TGI [46]: > 100 µM | GI50 [47]: > 100 µM | TGI [47]: > 100 µM | GI50 [48]: > 100 µM | TGI [48]: > 100 µM | GI50 [49]: > 100 µM | TGI [49]: > 100 µM | GI50 [50]: > 100 µM | TGI [50]: > 100 µM | GI50 [51]: > 100 µM | TGI [51]: > 100 µM | GI50 [52]: > 100 µM | TGI [52]: > 100 µM | GI50 [53]: > 100 µM | TGI [53]: > 100 µM | GI50 [54]: > 100 µM | TGI [54]: > 100 µM | GI50 [55]: > 100 µM | TGI [55]: > 100 µM

Source: PubChem BioAssay (NCI)
